Drawing on ChEMBL document CHEMBL1153814, “Synthesis of 3-deoxypentacyclic triterpene derivatives as inhibitors of glycogen phosphorylase” (J Nat Prod, 2009), this text covers IC50 for 1 compound.

pIC50: −log10 of the molar value.

The test concerns the target T1, Glycogen phosphorylase, muscle form (Oryctolagus cuniculus, UniProt P00489).
T1 sequence (P00489 whole entry): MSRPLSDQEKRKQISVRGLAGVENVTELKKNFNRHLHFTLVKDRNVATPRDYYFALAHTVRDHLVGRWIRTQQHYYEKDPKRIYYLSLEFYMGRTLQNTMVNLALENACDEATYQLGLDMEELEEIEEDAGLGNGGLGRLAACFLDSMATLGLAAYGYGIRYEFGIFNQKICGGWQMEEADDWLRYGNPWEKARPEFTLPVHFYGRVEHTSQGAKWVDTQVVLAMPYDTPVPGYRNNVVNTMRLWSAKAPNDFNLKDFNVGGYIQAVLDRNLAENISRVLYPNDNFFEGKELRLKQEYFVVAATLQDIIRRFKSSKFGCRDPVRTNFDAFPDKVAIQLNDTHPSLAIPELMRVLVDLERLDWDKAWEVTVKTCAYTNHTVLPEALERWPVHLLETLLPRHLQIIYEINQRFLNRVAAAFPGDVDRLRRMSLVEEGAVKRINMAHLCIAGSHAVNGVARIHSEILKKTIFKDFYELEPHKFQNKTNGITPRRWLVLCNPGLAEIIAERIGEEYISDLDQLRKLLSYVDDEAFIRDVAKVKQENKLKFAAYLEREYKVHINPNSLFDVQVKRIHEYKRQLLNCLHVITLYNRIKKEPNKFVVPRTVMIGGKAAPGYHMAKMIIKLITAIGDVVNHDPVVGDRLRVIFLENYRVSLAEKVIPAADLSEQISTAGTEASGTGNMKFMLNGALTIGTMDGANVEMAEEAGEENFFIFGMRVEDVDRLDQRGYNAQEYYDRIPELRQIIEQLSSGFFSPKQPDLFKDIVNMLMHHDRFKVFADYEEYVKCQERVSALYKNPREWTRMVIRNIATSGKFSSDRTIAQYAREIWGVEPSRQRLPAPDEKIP
Nature of the test: Inhibition of rabbit muscle glycogen phosphorylase assessed as release of phosphate from glucose-1-phosphate after 25 mins.

As to `CC1(C)CC[C@]2(C(=O)O)CC[C@]3(C)C(=CC[C@@H]4[C@@]5(C)CC[C@H](O)C(C)(C)[C@@H]5CC[C@]43C)[C@@H]2C1` [OLEANOLIC_ACID], the pIC50 was 4.66.

One may read the pIC50 as the negative decadic logarithm of the IC50, by convention in mol/L.
